Test results reported in PubChem BioAssay AID449750 (Broad Institute, 2010).

Test: non-covalent RecA intein splicing inhibitors, dose response, biochemical, cell-free, fluorescence, secondary screen (AID 449750)

## Clc1ccc(COC(Cn2ccnc2)c2ccc(Cl)cc2Cl)cc1 (configuration not stated)
  AC50: 8.79 µM

## Clc1ccc(COC(Cn2ccnc2)c2ccc(Cl)cc2Cl)c(Cl)c1 (configuration not stated)
  AC50: 6.55 µM
